Laboratory results: US20180318263A1, “TREATMENT OF PROSTATE CANCER CELLS WITH FAT OXIDATION INHIBITORS AND ENZALUTAMIDE” (The Regents of the University of Colorado, a body corporate, priority 2016, published 2018)

Test system: androgen receptor (AR)
Test: AR expression in LNCaP CPT1A-KD clones treated with enzalutamide
Type: cell-based, human
Conditions: LNCaP CPT1AKD clones, enzalutamide over 2 days

CNC(=O)c1ccc(N2C(=S)N(c3ccc(C#N)c(C(F)(F)F)c3)C(=O)C2(C)C)cc1F [enzalutamide]
AR full length and ARv7 variant expression: increase in AR full length and ARv7 variant
